We go through 85 molecules from PubChem BioAssay AID1565 (Sanford-Burnham Center for Chemical Genomics, 2009).

Protein sequences, listed by entry. Tags and fused reporters are not part of them.
UniProt Q8TCT1, whole entry: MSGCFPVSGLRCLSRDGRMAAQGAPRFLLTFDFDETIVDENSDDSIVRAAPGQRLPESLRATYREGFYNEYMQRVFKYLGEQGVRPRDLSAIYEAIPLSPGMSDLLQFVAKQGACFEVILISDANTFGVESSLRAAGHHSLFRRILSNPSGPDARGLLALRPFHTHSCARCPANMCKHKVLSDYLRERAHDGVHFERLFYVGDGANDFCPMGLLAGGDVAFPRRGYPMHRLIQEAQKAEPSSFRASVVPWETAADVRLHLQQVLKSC

Each structure is given as a SMILES string. This is a selection; strong and weak results do not stand in their true shares. Some salts or complexes appear as unconnected parts, following the source record. Active and inactive are the calls of the source. Rule as the data show it: active = inhibition above about 60%; inactive = the rest.

The experiment concerns the target Phosphoethanolamine/phosphocholine phosphatase (Homo sapiens) (UniProt Q8TCT1). Briefly: PubChem AID 1565. The following applies: recombinant PHOSPHO1, absorbance phosphatase assay; at 13.3 µM; stronger effect = higher value.
The inhibition is the change of the read-out against control, counted positive when it falls. In the case of `CCN(CC)CCCOC(=O)C(O)(c1ccccc1)c1ccccc1`, the inhibition is inactive: 12.3%.

As to `Cc1cccc(C)c1OP(C)(N)=O` (stereo not given), the inhibition was inactive: 19.5%.

Consider `CC(C)(C)c1ccc(OP(C)(=O)Nc2ccc(SC(F)(F)F)cc2)cc1` (stereo not given), for which the inhibition is inactive: -11.9%. Next, `O=[N+]([O-])c1ccc2c(c1)C=Nc1ccccc1O2`: inactive: -13.4%; `CCOC(=O)c1ccc(NP(C)(=O)Oc2ccccc2)cc1` (stereo not given): inactive: 0.3%; `Cc1ccc(NP(C)(=O)Oc2ccccc2)c(C)c1` (stereo not given): inactive: -34.4%. Next, `COc1ccccc1OP(C)(=O)Nc1ccc(C)cc1` (stereo not given): inactive: -1.6%; `COc1ccc(OP(C)(=O)Nc2cccc(F)c2)cc1` (stereo not given): inactive: 11.6%; `COc1ccccc1OP(C)(=O)Nc1cc(Cl)ccc1C` (stereo not given): inactive: 15.8%. The same measure for `Cc1cc(C)cc(OP(C)(N)=O)c1` (stereo not given): inactive: 16.3%. Turning to `CP(=S)(Nn1cnnc1)Oc1ccccc1` (stereo not given), the inhibition is inactive: -6.7%. Turning to `COc1ccccc1OP(C)(=O)Nc1ccccc1` (stereo not given), the inhibition was inactive: -2.7%. The same measure for `CP(=O)(Nc1ccccc1Br)Oc1ccccc1` (stereo not given): inactive: -2%; for `CP(=O)(Oc1ccccc1)OC(c1ccccc1)C(F)(F)F` (stereo not given): inactive: 8.1%; for `CP(=O)(Nc1ccc(SC(F)(F)F)cc1)Oc1ccc(Cl)cc1` (stereo not given): inactive: -1.5%.

Turning to `Cc1cccc(C)c1OP(C)(=O)Nc1ccc(SC(F)(F)F)cc1` (stereo not given), the inhibition is inactive: 0.8%.

As for `Cc1cc(C)cc(OP(C)(=O)Nc2ccc(SC(F)(F)F)cc2)c1` (stereo not given), the inhibition is inactive: -14.5%. Next, `CP(=O)(NC(=O)Nc1ccccc1)Oc1ccccc1` (stereo not given): inactive: -8.1%.

In the case of `CCc1ccc(OP(C)(=O)N2CCN(c3ccc([N+](=O)[O-])cc3)CC2)cc1` (stereo not given), the inhibition was inactive: 36.8%. The same measure for `CCOP(C)(=S)SCC(=O)NC(C)C(=O)O` (stereo not given): inactive: 14.5%. Next, `CCOC(=O)c1ccc(NP(C)(=O)Oc2ccc(OC)cc2)cc1` (stereo not given): inactive: 1.1%; `CP(=O)(Nc1ccccn1)Oc1ccc(Cl)cc1` (stereo not given): inactive: -21.8%; `O=[N+]([O-])c1cc([N+](=O)[O-])c(-n2nnc3ccccc32)c([N+](=O)[O-])c1`: inactive: 47.6%.

Turning to `Cc1nc2ccc3ccccc3c2s1.O=[N+]([O-])c1cc([N+](=O)[O-])c(O)c([N+](=O)[O-])c1`, the inhibition was inactive: 6.7%.

Turning to `CCOC(=O)C(CC)C1=NC(C)(C)Cc2ccccc21.O=[N+]([O-])c1cc([N+](=O)[O-])c(O)c([N+](=O)[O-])c1` (stereo not given), the inhibition is inactive: 38.6%. Consider `O=[N+]([O-])c1cc([N+](=O)[O-])c(Nc2nnnn2CCO)c([N+](=O)[O-])c1`, for which the inhibition is inactive: 14.9%.

As to `CN1CCCCC1COC(=O)C1(O)c2ccccc2CCc2ccccc21` (stereo not given), the inhibition was inactive: 1.9%. The same measure for `COc1ccccc1OP(C)(=O)Nc1c(C)cccc1C` (stereo not given): inactive: 37.9%; for `CCCOc1ccc(NP(C)(=O)Oc2ccc(Cl)cc2)cc1` (stereo not given): inactive: 16.8%; for `CP(=O)(Nc1ccc(SC(F)(F)F)cc1)Oc1ccccc1` (stereo not given): inactive: 7.2%. In the case of `O=C(O)c1cccc(Nc2c([N+](=O)[O-])cc([N+](=O)[O-])cc2[N+](=O)[O-])c1`, the inhibition was inactive: 29.8%. The same measure for `CC1=NCCc2c1[nH]c1ccccc21.O=[N+]([O-])c1cc([N+](=O)[O-])c(O)c([N+](=O)[O-])c1`: inactive: -30.7%; for `COc1ccccc1OP(C)(=O)Nc1cccc(Br)c1` (stereo not given): inactive: 11.1%; for `Cc1cc(C)cc(OP(C)(=O)Nc2ccc(C)cc2C)c1` (stereo not given): inactive: 11.6%.

As to `CCOC(=O)c1ccc(NP(C)(=O)Oc2cc(C)cc(C)c2)cc1` (stereo not given), the inhibition is inactive: -4%. Next, `Cc1cc(C)cc(OP(C)(=O)Nc2ccccn2)c1` (stereo not given): inactive: -1.2%; `CP(=O)(Nc1cccc(Br)c1)Oc1ccccc1` (stereo not given): inactive: 3.2%.

On to `Cc1ccc(C)c(NP(C)(=O)Oc2ccccc2)c1` (stereo not given), for which the inhibition is inactive: -1.4%. As for `CC(C)c1ccc(OP(C)(=O)Nc2ccc(SC(F)(F)F)cc2)cc1` (stereo not given), the inhibition was inactive: -7.8%. Regarding `CP(=O)(Nc1ccccc1F)Oc1ccccc1` (stereo not given), the inhibition was inactive: 8.6%. The same measure for `O=C(OCCN1CCN(CCOCc2ccccc2)CC1)C(O)(c1ccccc1)c1ccccc1`: inactive: -22.6%; for `O=C(OC1CN2CCC1CC2)c1ccc([N+](=O)[O-])cc1` (stereo not given): inactive: 28.5%.

As for `COc1ccc2c(c1O)-c1c(O)c(OC)cc3c1[C@H](C2)[N+](C)(C)CC3.O=[N+]([O-])c1cc([N+](=O)[O-])c([O-])c([N+](=O)[O-])c1[O-]`, the inhibition was inactive: 26.5%. Turning to `COc1ccc(OP(C)(=O)Nc2ccc(SC(F)(F)F)cc2)cc1` (stereo not given), the inhibition was inactive: 0.3%. Next, `CCOC(=O)c1ccc(NP(C)(=O)Oc2ccc(F)cc2)cc1` (stereo not given): inactive: 13.4%.

Turning to `CCN(CC)CCCOC(=O)C(O)(c1ccccc1)C1CCCCC1` (stereo not given), the inhibition is inactive: 0.5%. Next, `O=[N+]([O-])c1cc([N+](=O)[O-])c(OC2CCCCC2O)c([N+](=O)[O-])c1` (stereo not given): inactive: 34%; `CCCCCOc1ccc(NP(C)(=O)Oc2ccc(Cl)cc2Cl)cc1` (stereo not given): inactive: 23.9%.

`CP(=O)(Nc1ccccc1)Oc1ccc(F)cc1` (stereo not given): the inhibition is inactive: 36.9%. The same measure for `COc1ccc(OP(C)(=O)Nc2cccc(Br)c2)cc1` (stereo not given): inactive: 11.1%; for `COc1ccc(NP(C)(=O)Oc2ccccc2OC)cc1` (stereo not given): inactive: -12.7%. Next, `CN(C)CCOC(=O)C(O)(c1ccccc1)C1CCCCC1` (stereo not given): inactive: 21.5%; `Cc1cc(-c2cccc3ccccc23)c(C)cn1.O=[N+]([O-])c1cc([N+](=O)[O-])c(O)c([N+](=O)[O-])c1`: inactive: 1.5%. Next, `O=[N+]([O-])c1cc([N+](=O)[O-])c(NCC2CCS(=O)(=O)C2)c([N+](=O)[O-])c1` (stereo not given): inactive: 4.2%; `O=[N+]([O-])c1ccc(OP2(=O)COCCO2)cc1` (stereo not given): inactive: 37.4%; `CP(=O)(Nc1ccc(SC(F)(F)F)cc1)Oc1ccc(F)cc1` (stereo not given): inactive: 23.9%. Consider `CCOP(C)(=S)SCC(=O)NC(C)(CC)C(=O)O` (stereo not given), for which the inhibition is inactive: 25.5%.

Take `CP(=O)(Nc1ccc2c(c1)OCCO2)Oc1ccccc1` (stereo not given): the inhibition was inactive: 1.5%. The same measure for `Cc1ccccc1NP(C)(=O)Nc1ccccc1C`: inactive: 41.6%; for `COc1ccc(OP(C)(=O)Nc2ccc(Br)cc2)cc1` (stereo not given): inactive: 5.6%. The same measure for `CCN(CC)CC(O)COC(=O)C(O)(c1ccccc1)C1CCCCC1` (stereo not given): inactive: 4.9%; for `CCc1ccc(OP(C)(=O)Nc2cccnc2)cc1` (stereo not given): inactive: 47.7%.

As for `CP(=O)(Oc1ccccc1)N1CCOC1=O` (stereo not given), the inhibition was inactive: 2.8%. Next, `O=C(OCCCN1CCCC1)C(O)(c1ccccc1)C1CCCCC1` (stereo not given): inactive: -12.5%; `COc1ccccc1OP(C)(=O)Nc1c(C)n(C)n(-c2ccccc2)c1=O` (stereo not given): inactive: -6.5%; `CP(=O)(Nc1ccc(Cl)cc1)Oc1ccc(F)cc1` (stereo not given): inactive: 24.4%. The same measure for `COc1ccccc1OP(C)(=O)Nc1ccccc1Br` (stereo not given): inactive: -6.8%. The same measure for `CC(C)(C)c1ccc(OP(C)(=O)O)cc1`: inactive: 15%; for `CN(C)C(=O)c1c([N+](=O)[O-])cc([N+](=O)[O-])cc1[N+](=O)[O-]`: inactive: 4.4%. With `CP(=O)(OC12CC3CC(CC(C3)C1)C2)OC12CC3CC(CC(C3)C1)C2`, the inhibition is inactive: -11.1%.

For the molecule `CCOC(=O)c1ccc(NP(C)(=O)Oc2ccc(Cl)cc2)cc1` (stereo not given), the inhibition was inactive: 3.1%. The same measure for `Cc1cc(C)cc(OP(C)(=O)Nc2cccc(C(F)(F)F)c2)c1` (stereo not given): inactive: 44.9%; for `COc1ccc(OP(C)(=O)Nc2ccccc2Br)cc1` (stereo not given): inactive: 3.5%. Next, `COc1ccccc1OP(C)(=O)Nc1ccc(C)c(C)c1` (stereo not given): inactive: -2.2%. Next, `Cc1nc2ccc3ccccc3c2o1.O=[N+]([O-])c1cc([N+](=O)[O-])c(O)c([N+](=O)[O-])c1`: inactive: 33.6%; `CP(=O)(Nc1ccc(Cl)cc1Cl)Oc1ccccc1` (stereo not given): inactive: -106%.

In the case of `CP(=O)(OCCOc1ccccc1)OCCOc1ccccc1`, the inhibition was inactive: 16.6%. Next, `COc1ccccc1OP(C)(=O)Nc1ccc(Br)cc1` (stereo not given): inactive: -1.4%. Next, `CN(C)CCOC(=O)C(O)(c1ccccc1)C1CCCC1` (stereo not given): inactive: 12.4%. For the molecule `COc1ccc(OP(C)(=O)Nc2ccccn2)cc1` (stereo not given), the inhibition is inactive: -8.6%. Next, `Cc1c(NP(C)(=O)Oc2ccc(C(C)C)cc2)c(=O)n(-c2ccccc2)n1C` (stereo not given): inactive: 50.1%; `O=[N+]([O-])c1cc([N+](=O)[O-])c(Nc2ccccn2)c([N+](=O)[O-])c1`: inactive: 32.8%. The same measure for `CCc1ccc(OP(C)(=O)O)cc1`: inactive: 48.5%; for `COc1ccccc1OP(C)(=O)Nc1ccc(C)cc1C` (stereo not given): inactive: 26.7%; for `CP(=O)(Nc1ccccn1)Oc1ccccc1` (stereo not given): inactive: -17.8%.
